# High-throughput results (PubChem BioAssay)
# miR-21 reporter: raises the signal of a miR-21 reporter; Potency, µM (doses to about 38.3 µM); HeLa miR-21 FLuc reporter, luciferase, 48 h; AID 2288; 340,000 tested, under 10 active; active = well fitted rising curve with a large enough effect; inconclusive = small, poorly fitted or top-dose-only effect; inactive = no such curve, though single readings can be large or run the other way;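 further: miR-21 action dims this reporter so a rising signal means less miR-21 action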
#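 Compounds were titrated across several concentrations (up to approximately 40 uM) and incubated 48 hours with HeLa miR-21-FLuc reporter cells (miR-21 target sequence downstream of FLuc, endogenous miR-21). Readout was firefly luciferase luminescence after lytic detection reagent.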
# KDM4E inh: JMJD2E (human) inhibition | JMJD2E catalytic domain, FDH-coupled NADH fluorescence (FDH is formaldehyde dehydrogenase) | Potency, µM (series often up to 57.1 µM), actives largely listed as inhibitors | hit rate 1.6% among 230,000; active = well fitted inhibition curve with a large enough effect, not every such curve was filed as active; inconclusive = small, poorly fitted or top-dose-only effect, or another doubt; inactive = no such curve, though single readings can be large or run the other way; note: nearly all actives have a fitted effect of over 50% in size
# Lamin A splicing: LMNA splicing modulation; hit rate 0.01% among 200,000; HeLa LMNA splicing GFP/RFP minigene ratio, 48 h; Potency, µM (highest dose often 46.1 µM), most hits filed as inhibitors; active = well fitted inhibition curve with a large enough effect in the signal ratio, with a control signal flat, not every such curve was filed as active; inconclusive = small, poorly fitted or top-dose-only effect, or effect the other way, or a change in a side signal; the % refers to the signal ratio
#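 S3 HeLa cells stably expressing lamin A-EGFP splicing minigene plus DsRed2, 600 cells/well, 48 h compound exposure at 37C. Laser-scanning cytometry; analysed as GFP (500-530 nm)/RFP (575-640 nm) total intensity ratio; 0.5% DMSO vehicle.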
# G9a inh: blocks human histone lysine methyltransferase G9a; G9a H3K9 monomethylation, AlphaScreen, 2 h; Potency, µM (top dose mostly 102 µM), hits mostly inhibitors; hit rate 8.8% among 350,000; AID 504332; note: nearly all actives have a fitted effect of over 75% in size
#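 Signal arises when biotinylated H3K9 peptide, once monomethylated, bridges streptavidin donor and antibody-captured acceptor beads. Enzyme at 20 nM was preincubated 15 min with test compounds; peptide 500 nM and SAM 20 uM then reacted for 2 h.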
# Sfp PPTase inh: Sfp phosphopantetheinyl transferase inhibition | Q9F4F7 | Biochemical Sfp PPTase activity, qHTS | Potency, µM, usual class: inhibitors | hit rate 3.5% among 310,000;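 note: the enzyme is Sfp with the accession as filed and its product quenches rhodamine fluorescence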
#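 With Hepes-Na pH 7.6 buffer containing 10 mM MgCl2, Sfp (15 nM) modified BHQ-2-YbbR (12.5 uM) using rhodamine-CoA (5 uM). Two reads 30 minutes apart at 525/598 nm yielded each well's rate.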
# ALDH1A1 inh: ALDH1A1 (human) enzyme inhibition. Purified ALDH1A1, NADH fluorescence, propionaldehyde substrate. Potency, µM (series often up to 75.3 µM), usual class: inhibitors. hit rate 7.3% among 220,000. AID 1030; active = well fitted inhibition curve with a large enough effect, not every such curve was filed as active; inconclusive = small, poorly fitted or top-dose-only effect, or another doubt; inactive = no such curve, though single readings can be large or run the other way
# Numbers stand for hits; – = inactive; ? = inconclusive; · = no result given; ! = not active in a repeat; [ ] = another dose, or the depositor's remark. Hits are enriched below; roughly 13% of the tested compounds scored in any of these assays. Unless noted, calls come from the whole dose curve; as a rule, active = well fitted curve in the direction sought with a large enough effect; inconclusive = small, poorly fitted or top-dose-only effect, or another doubt; inactive = no such curve, though single readings can be large; an effect the other way counts as inactive or inconclusive.
SMILES,miR-21 reporter,KDM4E inh,Lamin A splicing,G9a inh,Sfp PPTase inh,ALDH1A1 inh
N[C@@H](Cc1cc(I)c(Oc2cc(I)c(O)c(I)c2)c(I)c1)C(=O)O,·,·,?,?,–,·
NC(Cc1cc(I)c(Oc2ccc(O)c(I)c2)c(I)c1)C(=O)O (configuration not stated),·,–,·,–[2.33 µM],–,–
N[C@@H](Cc1cc(I)c(Oc2ccc(O)c(I)c2)c(I)c1)C(=O)O,–,–,?,3.98µM!,–,6.31µM!
Fc1ccccc1COc1ccc(Br)cc1CNCC1CCCO1 (configuration not stated),–,–,?,·,?,–
Fc1ccc(COc2ccc(Br)cc2CNCC2CCCO2)cc1 (configuration not stated),–,–,·,50.1µM,–,–
CCOc1cc(C(c2c(C)[nH]n(-c3ccccc3)c2=O)c2c(C)[nH]n(-c3ccccc3)c2=O)ccc1O,–,·,·,?,·,·
COc1ccc(C(c2c(C)[nH]n(-c3ccccc3)c2=O)c2c(C)[nH]n(-c3ccccc3)c2=O)cc1OC,–,?,–,?,–,8.91µM
Cc1ccc(C(C[N+](=O)[O-])c2c(C)[nH]n(-c3ccccc3)c2=O)cc1 (configuration not stated),–,?,?,?,–,?
Cc1[nH]n(-c2ccccc2)c(=O)c1C(C[N+](=O)[O-])c1ccc(Cl)cc1 (configuration not stated),–,?,?,?,–,20µM
Cc1[nH]n(-c2ccccc2)c(=O)c1C(c1ccccc1[N+](=O)[O-])C(C#N)C#N (configuration not stated),–,·,·,28.2µM,–,·
Cc1[nH]n(-c2ccccc2)c(=O)c1C(C[N+](=O)[O-])c1ccc(F)cc1 (configuration not stated),–,?,?,44.7µM,–,–
Cc1cccc(C(=O)OCC(=O)NC(C)CCc2ccccc2)c1O (configuration not stated),–,·,·,–[2.33 µM],–,·
O=C(CCN1C(=O)C2C3C=CC(C3)C2C1=O)Nc1ccccc1 (configuration not stated),–,–,–,–,–,–
O=C(CCN1C(=O)C2C3C=CC(C3)C2C1=O)NCCc1ccccc1Cl (configuration not stated),–,–,–,–[12.7 µM],–,8.91µM
COc1cc2c(cc1OC)/C(=C/C(=O)c1ccccc1F)NCC2,–,·,·,56.2µM,–,·
COc1cc2c(cc1OC)/C(=C/C(=O)c1ccc(F)cc1)NCC2,–,·,·,79.4µM,–,·
COc1cc2c(cc1OC)/C(=C/C(=O)c1cccc([N+](=O)[O-])c1)NCC2,–,·,·,–,–,·
CCc1cc(C(=O)Nc2c(C)nn(Cc3ccc(C)cc3)c2C)no1,–,·,·,–,·,·
C=CCn1c(C)nnc1SCC(=O)Nc1nccs1,–,·,·,?,–,·
Cc1cccc(NC(=O)Cn2c(=O)n3nc(CCn4nc(C)cc4C)nc3c3ccccc32)c1,–,–,–,–[12.7 µM],–,14.1µM
COc1ccccc1N(CC(=O)N/N=C/c1c(O)ccc2ccccc12)S(C)(=O)=O,–,?,?,–,–,–
Cc1ccc(S(=O)(=O)/N=C/c2c(O)ccc3ccccc23)cc1,–,·,·,3.98µM,–,·
O=S(=O)(/N=C/c1c(O)ccc2ccccc12)c1cccs1,–,?,–,1.41µM,–,11.2µM
CN(C)c1ccc(-c2nnc3n(Cc4ccccc4)c(=O)c4ccccc4n23)cc1,–,·,·,–,·,·
CN1CCc2cc3c(c4c2[C@H]1[C@H](O)c1ccccc1-4)OCO3,–,17.8µM,?,50.1µM,–,–
SMILES,miR-21 reporter,KDM4E inh,Lamin A splicing,G9a inh,Sfp PPTase inh,ALDH1A1 inh
CCCCNC(=O)CCC(=O)NNc1nc2ccccc2c2nc(C)nn12,–,–,–,25.1µM!,–,–
c1cc(CNCCCN2CCOCC2)ccn1,–,–,–,?,–,–
CC(=O)N(CCCN1CCOCC1)Cc1ccncc1,–,–,–,50.1µM,–,–
Cc1cccc(CCn2c(=O)c3ccccc3n(Cc3cccc(F)c3)c2=O)c1,–,·,·,–,·,·
O=C(O)c1ccc(-n2cc(-c3cc4ccccc4oc3=O)[nH]c2=S)cc1,–,?,·,–,3.16µM,?
O=c1oc2ccccc2cc1-c1ccccc1,–,?,–,–,–,?
Cc1ccc(NC(=O)CCS(=O)(=O)c2cc(Br)cc3c2N(C(=O)C2CC2)CC3)cc1,–,·,·,–,·,·
O=C(CN1CCN(c2ccccc2)CC1)Nc1cccc(C(F)(F)F)c1,–,–,–,–[12.7 µM],–,–
O=C(CN1CCN(c2ccccn2)CC1)N1c2ccccc2Sc2ccc(C(F)(F)F)cc21,–,?,?,?,?,7.94µM
O=C(CN1CCN(c2ccccn2)CC1)Nc1cccc(C(F)(F)F)c1,–,–,?,–,–,9.46µM
O=C(CN1CCCC1)N1c2ccccc2Sc2ccc(C(F)(F)F)cc21,–,–,–,?,–,–
O=C(Nc1cccc(C(F)(F)F)c1)c1cccnc1N1CCN(c2ccccc2)CC1,–,?,?,?,22.4µM,?
O=C(Nc1cccc(C(F)(F)F)c1)c1cccnc1N1CCN(CCO)CC1,–,–,–,–,–,–
Cc1cc(-c2nnc(CCC(=O)NCc3ccc(OC(F)(F)F)cc3)o2)no1,–,·,·,–,–,·
CCN(C(=O)CSc1ncc2c(n1)-c1cc(Cl)ccc1N(Cc1ccccc1)S2(=O)=O)c1cccc(C)c1,–,·,·,–,·,·
Cc1cccc(-c2nc(C)c(CCNC(=O)C(=O)Nc3cccc(Cl)c3C)s2)c1,–,·,–,–,·,·
CC(CC(=O)O)Nc1ccccc1O (configuration not stated),–,20µM,–,2µM,35.5µM,–
COCCn1c(N)c(N(Cc2ccccc2)C(=O)CN2C(=O)NC(C)(c3ccccc3)C2=O)c(=O)[nH]c1=O (configuration not stated),–,·,·,–,–,·
CCCCn1c(N)c(N(Cc2ccccc2OC)C(=O)CN2C(=O)NC(C)(c3ccccc3)C2=O)c(=O)[nH]c1=O (configuration not stated),·,·,·,5.62µM,·,·
COc1cccc([C@@H]2Oc3ccc(OC)cc3/C(=N/O[C@@H](C)c3cn([C@H]4COC[C@H]4O)nn3)[C@@H]2O)c1,·,·,·,·,–,–[13.5 µM]
CCCCC#Cc1nc(N)c2ncn([C@@H]3O[C@H](C(=O)NCC)[C@@H](O)[C@H]3O)c2n1,·,–,–,–[12.7 µM],·,7.94µM
Cc1cc(C(=O)N/N=C(\CCC(=O)O)c2cccs2)c2ccccc2n1,–,–,·,–,–,25.1µM
O=C(Nn1c(Cc2cccs2)nc2ccccc2c1=O)c1cccs1,–,–,?,50.1µM,–,–
Cc1ccc(-c2nc3ccccc3c(=O)n2NC(=O)c2cccs2)cc1,–,–,–,–,–,?
O=C1SCCC1NS(=O)(=O)c1ccccc1[N+](=O)[O-] (configuration not stated),–,–,–,44.7µM,–,?
